## Yeast mating assay 2: variants of the scFv Ab-95

Source: Engelhart et al. 2022 (doi:10.1038/s41597-022-01779-4), MIT Lincoln Laboratory and A-Alpha Bio; data file from the FLAb repository.

Target: peptide PDVDLGDISGINAS, taken from heptad repeat 2 (HR2) of SARS-CoV-2 spike.

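The starting antibody came from a phage panning campaign against this peptide. Variants in AAYL52 differ from the parent at up to three CDR positions; double and triple changes were sampled at random. Affinity was read by AlphaSeq, a pooled yeast mating assay with surface-displayed partners. Mating (16 h, 30 °C) was followed by selection of diploids and sequencing of their barcodes. The ratio of observed to expected reads was calibrated, replicate by replicate, on BCL2-family standards whose Kd was known from biolayer interferometry. Mating was done three times.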

Each scFv is VH, a (GGGGS)3 linker, VL, as in the parent Ab-95, and differs from it in the CDRs of the light chain only.
VH: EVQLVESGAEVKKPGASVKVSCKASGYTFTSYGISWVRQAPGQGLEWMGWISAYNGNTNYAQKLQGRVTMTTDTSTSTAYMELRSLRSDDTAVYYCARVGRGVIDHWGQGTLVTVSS
VL: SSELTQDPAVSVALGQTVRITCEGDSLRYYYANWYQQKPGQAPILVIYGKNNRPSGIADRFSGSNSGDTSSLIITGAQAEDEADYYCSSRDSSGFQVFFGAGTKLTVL

Variants are written as CDR1, CDR2 and CDR3 of the light chain (limits as in the source). Parent: EGDSLRYYYAN, GKNNRPS, SSRDSSGFQVF. Every variant below is changed at S89 of the VL (sequential numbering). Each Kd is an estimate from the mating assay, the geometric mean of the replicates in which the pair was seen; lower is stronger. "nd" marks a missing value. The strain was present, yet no cells mated with the target were sequenced in any replicate, which points to weak or no binding. As a blank, each scFv also met three strains without target: over library AAYL52, 28% of these pairings were detected, typically at 8.2 µM and seldom below 800 nM. The control count says in how many pairings with the empty strains this scFv gave a signal.

EGDSLRYYYAN / GKNNRPS / SCRVSSGFQQF: 89 nM (3 of 3 replicates; controls 5 of 9).
EGDFLRYYYAN / GKNNRPS / SFRYSSGFQVF: 39 µM (1 of 3 replicates; controls 1 of 9).
EGDSLRYYYAN / NKNNRPS / SMRDSSQFQVF: 11 µM (1 of 3 replicates; controls 1 of 9).
EGDSLRYYYAN / GKNNYPS / SHRVSSGFQVF: 1.7 µM (1 of 3 replicates; controls 2 of 9).
EGDSLRWYYAN / GKNNRPS / SFRYSSGFQVF: 1.5 µM (3 of 3 replicates; controls 3 of 9).
EGDSLRYYYDN / GKNNRPS / SKRDSSMFQVF: 3.9 µM (1 of 3 replicates; controls 0 of 9).
EGDSLRYYYAN / GINTRPS / SLRDSSGFQVF: 8.1 µM (1 of 3 replicates; controls 1 of 9).
EGDSLRYYYAN / HRNNRPS / SQRDSSGFQVF: nd (0 of 3 replicates; controls 2 of 9).
EGDSLRYYYAN / GKNNRPS / SQRDSSGEQVV: 240 nM (3 of 3 replicates; controls 5 of 9).
EGDSLRYYYAN / GKENRPS / SFRDSSGFQVF: 16 µM (2 of 3 replicates; controls 3 of 9).
EGDILRYYYAN / GKNNRPS / RWRDSSGFQVF: 5.8 µM (3 of 3 replicates; controls 3 of 9).
EGDSLRYYYAN / GKRNRPS / SHRDSSGFGVF: nd (0 of 3 replicates; controls 0 of 9).
EGISLRYSYAN / GKNNRPS / SKRDSSGFQVF: 38 nM (3 of 3 replicates; controls 2 of 9).
EGDSSRYYQAN / GKNNRPS / SARDSSGFQVF: 670 nM (3 of 3 replicates; controls 2 of 9).
EGDSLRYYTMN / GKNNRPS / SRRDSSGFQVF: 260 µM (1 of 3 replicates; controls 2 of 9).
EGMSLRYYYAN / GKNNRPS / SARDSSRFQVF: nd (0 of 3 replicates; controls 0 of 9).
IGDSLRYYYAN / GKNNRPS / NGRDSSGFQVF: 230 nM (3 of 3 replicates; controls 2 of 9).
EGDSLRYYYLN / GKNNRPS / SPRDSIGFQVF: 5.7 µM (1 of 3 replicates; controls 5 of 9).
EGDSLRYYYAF / GKNNRPS / SPRDSSGKQVF: nd (0 of 3 replicates; controls 1 of 9).
EGDSLRYYYAN / GKNNMPS / SKRDSSSFQVF: 4.4 µM (2 of 3 replicates; controls 3 of 9).
EGDSLRYYYAN / GKNNRPS / SWKDSSGFQVF: 1.2 µM (3 of 3 replicates; controls 4 of 9).
EGDSLRYYYAY / GKNNRPS / SDRDWSGFQVF: nd (0 of 3 replicates; controls 3 of 9).
EGDSLRYYYAN / GKNNRPS / SRRDSSGFQVF: 120 µM (1 of 3 replicates; controls 1 of 9).
EGDSLRYYYAN / GKNDRPS / SKRDSFGFQVF: 7.9 µM (1 of 3 replicates; controls 2 of 9).
EGDSLKYYYAN / GKNNRPS / SPRDSSGFQVF: 3.9 µM (1 of 3 replicates; controls 2 of 9).
NGDSLRYYYAN / GKNNRPS / SYRDSSGFQVD: nd (0 of 3 replicates; controls 0 of 9).
EGDSLRYYYAN / GKNNRPS / SRRASSGFQVV: nd (0 of 3 replicates; controls 0 of 9).
PIDSLRYYYAN / GKNNRPS / SDRDSSGFQVF: 25 µM (1 of 3 replicates; controls 1 of 9).
EGDSLRYYYAN / GKNNRPD / SPRDSSGFQVF: 940 nM (3 of 3 replicates; controls 2 of 9).
EGDKLAYYYAN / GKNNRPS / SKRDSSGFQVF: 38 µM (1 of 3 replicates; controls 3 of 9).
HGDSLRYAYAN / GKNNRPS / SCRDSSGFQVF: 4.5 nM (3 of 3 replicates; controls 8 of 9).
EGDSLRYYYAN / GKNMRPS / SIRDSSGFQVC: 62 nM (3 of 3 replicates; controls 0 of 9).
EGDSLIYYYAN / GKNNRPS / SFRDLSGFQVF: 1.0 µM (1 of 3 replicates; controls 0 of 9).
EGDSLRYYYAN / GKNNEPS / SVRDSSGFQVF: 1.7 µM (3 of 3 replicates; controls 3 of 9).
EGDSLRYYYAN / GKSNRPS / PPRDSSGFQVF: 5.3 µM (3 of 3 replicates; controls 3 of 9).
EGDSLRYYYAN / GKCNRPS / SNRDSSGFQVH: 5.7 µM (1 of 3 replicates; controls 1 of 9).
EGDSLSYYYAN / GMNNRPS / SQRDSSGFQVF: 10 µM (3 of 3 replicates; controls 4 of 9).
EGSSLRYYYAN / GKNNRPS / SHRDSSYFQVF: 800 nM (2 of 3 replicates; controls 3 of 9).
EGDSLRYYYAN / GKNRRPS / SWRDSCGFQVF: 15 µM (3 of 3 replicates; controls 6 of 9).
EGDSLRYYYAN / GKNNRFS / SHRDSSGSQVF: nd (0 of 3 replicates; controls 1 of 9).
EGVSLRYYYPN / GKNNRPS / SGRDSSGFQVF: 36 nM (3 of 3 replicates; controls 2 of 9).
EGDSLRYYYAN / GKYNRPE / SDRDSSGFQVF: 8.3 µM (3 of 3 replicates; controls 6 of 9).
EGDSLRYYYAN / GKNNRPS / SWRDSLPFQVF: 4.7 µM (2 of 3 replicates; controls 4 of 9).
EGDSLRYTYAN / GKNMRPS / SDRDSSGFQVF: 23 nM (3 of 3 replicates; controls 3 of 9).

The opening 4 entries, copied out:

CDR-L1,CDR-L2,CDR-L3,Kd (apparent),detected,empty controls
EGDSLRYYYAN,GKNNRPS,SCRVSSGFQQF,89 nM,3 of 3,5 of 9
EGDFLRYYYAN,GKNNRPS,SFRYSSGFQVF,39 µM,1 of 3,1 of 9
EGDSLRYYYAN,NKNNRPS,SMRDSSQFQVF,11 µM,1 of 3,1 of 9
EGDSLRYYYAN,GKNNYPS,SHRVSSGFQVF,1.7 µM,1 of 3,2 of 9